Assays:
HLA-A*0201 = HLA-A*0201 (Homo sapiens, UniProt P04439, D140Y/D185E/D98H/E176V/E277Q/G131W/G231S/I119V/I121R/I166T/I218V/L300P/L318F/N151K/N90K/P208A/P217A/Q86G/Q94H/R138H/R169H/T345S); format: binding
[1] = system: tumor targets that endogenously express HER2/neu (colon adenocarcinoma cell lines SW403 and HT-29); test: Primary in vitro CTL induction, recognition of wild-type peptide and endogenous tumor targets (51Cr release / in situ IFNγ ELISA); format: cell-based, human; conditions: number of donors yielding a positive response/total tested; normal donors
HLA-A*3301 = HLA-A*3301 (Homo sapiens, UniProt P04439, A270S/D185E/E176V/E277Q/E87N/F33T/G231S/H175R/I121M/I218V/I322F/K168Q/K210R/L300P/L318F/M331R/P217A/Q86R/Q94H/R138Q/T323A/T345S/T97I/V358M/Y195H); format: binding; conditions: Table XXIII, HLA-A3 supermotif-bearing peptides

Protein sequences, listed by entry. Tags and fused reporters are not part of them. Lines headed by an entry give the natural chain unless they say otherwise; changes in a name come on top.
UniProt P04439: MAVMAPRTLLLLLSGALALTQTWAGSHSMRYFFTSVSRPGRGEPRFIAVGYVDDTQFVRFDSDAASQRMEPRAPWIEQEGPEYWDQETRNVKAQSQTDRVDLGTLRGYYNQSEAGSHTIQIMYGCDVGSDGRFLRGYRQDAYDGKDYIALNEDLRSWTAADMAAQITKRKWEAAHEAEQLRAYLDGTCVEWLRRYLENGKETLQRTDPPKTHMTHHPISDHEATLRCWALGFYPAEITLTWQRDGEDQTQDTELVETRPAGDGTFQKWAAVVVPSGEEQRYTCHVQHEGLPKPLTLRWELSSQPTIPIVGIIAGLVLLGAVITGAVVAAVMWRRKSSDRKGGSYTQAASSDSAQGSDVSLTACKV

CC(C)C[C@H](NC(=O)[C@H](CCC(N)=O)NC(=O)[C@@H](NC(=O)[C@@H](NC(=O)[C@H](CO)NC(=O)[C@@H](NC(=O)[C@H](CC(C)C)NC(=O)[C@@H](N)CS)[C@@H](C)O)[C@@H](C)O)C(C)C)C(=O)N[C@H](C(=O)O)C(C)C
IC50 (HLA-A*0201): 208 nM

CC[C@H](C)[C@H](NC(=O)[C@@H](N)CCCCN)C(=O)N[C@@H](Cc1ccccc1)C(=O)NCC(=O)N[C@@H](CO)C(=O)N[C@@H](CC(C)C)C(=O)N[C@@H](C)C(=O)N[C@@H](Cc1ccccc1)C(=O)N[C@@H](CC(C)C)C(=O)O
CTL Tumor [1]: 4/7
CTL Wildtype [1]: 6/7

CC[C@H](C)[C@H](NC(=O)CNC(=O)[C@H](Cc1ccccc1)NC(=O)[C@@H](NC(=O)[C@@H](N)C(C)C)C(C)C)C(=O)N[C@@H](CC(C)C)C(=O)N[C@H](C(=O)N[C@@H](CCCCN)C(=O)N[C@@H](CCCCN)C(=O)O)[C@@H](C)CC [Her2/neu.669.K9]
IC50 (HLA-A*3301): > 10000 nM
